# Assay results: ChEMBL document CHEMBL2406934, “Orally available and efficacious α4β1/α4β7 integrin inhibitors” (Bioorg Med Chem Lett, 2013)
# Amino acid sequences for entries named in this document (tags omitted).
# UniProt P05556, whole entry: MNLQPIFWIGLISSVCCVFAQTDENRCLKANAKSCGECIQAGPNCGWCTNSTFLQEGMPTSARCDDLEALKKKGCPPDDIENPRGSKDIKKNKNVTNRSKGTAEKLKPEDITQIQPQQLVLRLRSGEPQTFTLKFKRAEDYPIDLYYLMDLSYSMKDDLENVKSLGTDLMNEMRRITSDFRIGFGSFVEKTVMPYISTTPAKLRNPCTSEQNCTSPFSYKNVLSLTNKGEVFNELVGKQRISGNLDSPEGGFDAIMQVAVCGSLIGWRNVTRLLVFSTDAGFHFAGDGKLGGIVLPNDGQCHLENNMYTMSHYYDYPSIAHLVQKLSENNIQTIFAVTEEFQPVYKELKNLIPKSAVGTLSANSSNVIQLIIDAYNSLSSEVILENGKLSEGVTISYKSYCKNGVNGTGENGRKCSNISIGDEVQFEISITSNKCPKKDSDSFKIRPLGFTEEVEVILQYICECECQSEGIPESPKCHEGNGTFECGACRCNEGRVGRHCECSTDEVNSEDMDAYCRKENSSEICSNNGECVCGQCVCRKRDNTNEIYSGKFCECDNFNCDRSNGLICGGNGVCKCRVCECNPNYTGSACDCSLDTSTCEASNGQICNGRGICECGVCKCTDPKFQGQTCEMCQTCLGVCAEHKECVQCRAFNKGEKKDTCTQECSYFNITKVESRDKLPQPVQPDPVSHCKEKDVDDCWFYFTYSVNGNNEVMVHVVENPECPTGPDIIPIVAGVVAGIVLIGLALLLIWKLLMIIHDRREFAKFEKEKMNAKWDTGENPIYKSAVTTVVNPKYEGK
# Experiments:
# Type in all cases: protein-complex assay
# [1] = molecular target: T1, Integrin alpha-4/beta-7 (Homo sapiens, UniProt P13612+P26010); assay: Inhibition of alpha4beta7 integrin-mediated human 8866 cell adhesion to MadCAM-1
# T1 sequence (P13612 whole entry): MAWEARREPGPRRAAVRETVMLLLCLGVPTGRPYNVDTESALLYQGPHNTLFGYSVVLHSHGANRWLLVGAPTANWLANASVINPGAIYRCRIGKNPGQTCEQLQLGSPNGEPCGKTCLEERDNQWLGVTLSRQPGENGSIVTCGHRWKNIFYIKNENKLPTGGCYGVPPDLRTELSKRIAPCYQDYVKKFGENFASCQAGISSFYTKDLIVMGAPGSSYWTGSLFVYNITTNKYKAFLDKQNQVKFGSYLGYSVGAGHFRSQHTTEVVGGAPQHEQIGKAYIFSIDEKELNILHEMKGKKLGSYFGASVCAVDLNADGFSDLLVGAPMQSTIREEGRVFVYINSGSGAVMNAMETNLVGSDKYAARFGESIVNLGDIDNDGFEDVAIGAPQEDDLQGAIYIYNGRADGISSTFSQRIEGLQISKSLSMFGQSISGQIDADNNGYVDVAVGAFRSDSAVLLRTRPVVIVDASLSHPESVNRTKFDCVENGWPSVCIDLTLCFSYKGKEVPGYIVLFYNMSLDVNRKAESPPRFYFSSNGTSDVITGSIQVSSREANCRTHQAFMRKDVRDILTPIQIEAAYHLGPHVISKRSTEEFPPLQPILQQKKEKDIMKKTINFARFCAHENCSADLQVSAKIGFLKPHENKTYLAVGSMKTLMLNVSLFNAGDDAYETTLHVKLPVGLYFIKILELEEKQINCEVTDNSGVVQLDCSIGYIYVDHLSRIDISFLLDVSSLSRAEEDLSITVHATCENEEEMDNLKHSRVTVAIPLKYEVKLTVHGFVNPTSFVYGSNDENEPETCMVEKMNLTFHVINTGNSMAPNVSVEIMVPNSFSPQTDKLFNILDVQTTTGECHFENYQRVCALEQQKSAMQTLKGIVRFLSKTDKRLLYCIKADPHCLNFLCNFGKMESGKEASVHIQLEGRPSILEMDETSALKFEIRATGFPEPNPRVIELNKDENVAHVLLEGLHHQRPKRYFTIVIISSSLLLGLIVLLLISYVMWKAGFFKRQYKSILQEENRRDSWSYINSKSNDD
# T1 sequence (P26010 whole entry): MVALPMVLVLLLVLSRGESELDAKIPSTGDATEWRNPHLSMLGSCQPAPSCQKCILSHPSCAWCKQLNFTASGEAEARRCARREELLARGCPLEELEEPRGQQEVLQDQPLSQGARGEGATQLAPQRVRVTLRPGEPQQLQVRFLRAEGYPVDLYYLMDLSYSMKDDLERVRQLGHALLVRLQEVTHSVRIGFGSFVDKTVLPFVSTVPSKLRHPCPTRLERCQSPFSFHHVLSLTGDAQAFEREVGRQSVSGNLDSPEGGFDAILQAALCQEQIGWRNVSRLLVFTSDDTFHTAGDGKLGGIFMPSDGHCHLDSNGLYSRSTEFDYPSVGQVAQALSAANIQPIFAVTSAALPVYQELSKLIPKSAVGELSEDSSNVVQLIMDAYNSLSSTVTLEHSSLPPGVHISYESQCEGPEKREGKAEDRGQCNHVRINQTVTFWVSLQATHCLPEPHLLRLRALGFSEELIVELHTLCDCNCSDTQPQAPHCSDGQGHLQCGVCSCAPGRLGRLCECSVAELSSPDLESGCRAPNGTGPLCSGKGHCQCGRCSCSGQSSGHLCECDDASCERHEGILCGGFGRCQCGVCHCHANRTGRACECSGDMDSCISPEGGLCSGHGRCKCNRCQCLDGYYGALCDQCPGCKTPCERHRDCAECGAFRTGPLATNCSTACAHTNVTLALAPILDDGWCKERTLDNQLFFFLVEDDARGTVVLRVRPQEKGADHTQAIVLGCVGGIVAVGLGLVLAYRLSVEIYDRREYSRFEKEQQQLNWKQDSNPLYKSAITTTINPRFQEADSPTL
# [2] = molecular target: T2, Integrin alpha-4/beta-1 (Homo sapiens, UniProt P05556+P13612); assay: Inhibition of alpha4beta1 integrin-mediated human jurkat cell adhesion to fibronectin in absence of human serum albumin
# [3] = molecular target: T2, Integrin alpha-4/beta-1; assay: Inhibition of alpha4beta1 integrin-mediated human jurkat cell adhesion to fibronectin in presence of human serum albumin
SMILES,IC50 [1],IC50 [2],IC50 [3]
CCN(CC)c1ncc(-c2c(C)noc2C)c(N[C@@H](Cc2ccc(OC(=O)N(C)C)cc2)C(=O)O)n1,510 nM,37 nM,24500 nM
C#CCN(c1cnc(N(CC)CC)nc1N[C@@H](Cc1ccc(OC(=O)N2CCCC2)cc1)C(=O)O)S(=O)(=O)c1ccc(F)cc1,10700 nM,11 nM,4600 nM
CCN(CC)c1ncc(N(CC)C(C)=O)c(N[C@@H](Cc2ccc(OC(=O)N3CCCC3)cc2)C(=O)O)n1,31 nM,3.2 nM,823 nM
CCN(CC)c1ncc(N(CC)c2ccc(F)cc2)c(N[C@@H](Cc2ccc(OC(=O)N3CCCC3)cc2)C(=O)O)n1,311 nM,589 nM,
CCN(CC)c1ncc(N(CC)c2ccccn2)c(N[C@@H](Cc2ccc(OC(=O)N3CCCC3)cc2)C(=O)O)n1,3000 nM,366 nM,
CCN(CC)c1ncc(N(CC)c2cccnc2)c(N[C@@H](Cc2ccc(OC(=O)N3CCCC3)cc2)C(=O)O)n1,156 nM,59 nM,17200 nM
CCN(CC)c1ncc(N(CC)c2ncccn2)c(N[C@@H](Cc2ccc(OC(=O)N3CCCC3)cc2)C(=O)O)n1,321 nM,80 nM,8300 nM
CCN(CC)c1ncc(N(C)S(C)(=O)=O)c(N[C@@H](Cc2ccc(OC(=O)N3CCCC3)cc2)C(=O)O)n1,179 nM,26.8 nM,17500 nM
C#CCN(c1cnc(N(CC)CC)nc1N[C@@H](Cc1ccc(OC(=O)N2CCCC2)cc1)C(=O)O)S(C)(=O)=O,510 nM,22.5 nM,10600 nM
CCN(CC)c1ncc(N(CCc2ccccc2)S(C)(=O)=O)c(N[C@@H](Cc2ccc(OC(=O)N3CCCC3)cc2)C(=O)O)n1,262 nM,9.5 nM,2250 nM
CCN(CC)c1ncc(N(C(C)C)S(C)(=O)=O)c(N[C@@H](Cc2ccc(OC(=O)N3CCCC3)cc2)C(=O)O)n1,223 nM,22.7 nM,7220 nM
CCN(CC)c1ncc(N(C2CCCC2)S(C)(=O)=O)c(N[C@@H](Cc2ccc(OC(=O)N3CCCC3)cc2)C(=O)O)n1,1370 nM,127 nM,18600 nM
CCN(CC)c1ncc(N(c2cccc(F)c2)S(C)(=O)=O)c(N[C@@H](Cc2ccc(OC(=O)N3CCCC3)cc2)C(=O)O)n1,483 nM,50 nM,23400 nM
CCN(CC)c1ncc(N(c2ccc(F)cc2)S(C)(=O)=O)c(N[C@@H](Cc2ccc(OC(=O)N3CCCC3)cc2)C(=O)O)n1,1050 nM,158 nM,9550 nM
CCN(CC)c1ncc(N(c2ccccn2)S(C)(=O)=O)c(N[C@@H](Cc2ccc(OC(=O)N3CCCC3)cc2)C(=O)O)n1,468 nM,128 nM,61700 nM
CCN(CC)c1ncc(N(c2cccnc2)S(C)(=O)=O)c(N[C@@H](Cc2ccc(OC(=O)N3CCCC3)cc2)C(=O)O)n1,594 nM,10.3 nM,3500 nM
CCN(CC)c1ncc(N(c2ccncc2)S(C)(=O)=O)c(N[C@@H](Cc2ccc(OC(=O)N3CCCC3)cc2)C(=O)O)n1,151 nM,37.9 nM,2550 nM
CCN(CC)c1ncc(N(c2ncccn2)S(C)(=O)=O)c(N[C@@H](Cc2ccc(OC(=O)N3CCCC3)cc2)C(=O)O)n1,3680 nM,888 nM,
CCN(CC)c1ncc(N(CC)C(=O)C(F)(F)F)c(N[C@@H](Cc2ccc(OC(=O)N3CCCC3)cc2)C(=O)O)n1,30 nM,3.4 nM,268 nM

SMILES,IC50 [1],IC50 [2],IC50 [3]
CCN(CC)c1ncc(N(CC)C(=O)c2ccccc2F)c(N[C@@H](Cc2ccc(OC(=O)N3CCCC3)cc2)C(=O)O)n1,104 nM,2.8 nM,1290 nM
CCN(CC)c1ncc(N(CC)C(=O)c2cccc(F)c2)c(N[C@@H](Cc2ccc(OC(=O)N3CCCC3)cc2)C(=O)O)n1,55 nM,2.3 nM,656 nM
CCN(CC)c1ncc(N(CC)C(=O)c2ccc(F)cc2)c(N[C@@H](Cc2ccc(OC(=O)N3CCCC3)cc2)C(=O)O)n1,50 nM,1.3 nM,331 nM
CCN(CC)c1ncc(N(CC)C(=O)c2cccs2)c(N[C@@H](Cc2ccc(OC(=O)N3CCCC3)cc2)C(=O)O)n1,29 nM,1.6 nM,2380 nM
CCN(CC)c1ncc(N(CC)C(=O)c2ccsc2)c(N[C@@H](Cc2ccc(OC(=O)N3CCCC3)cc2)C(=O)O)n1,36 nM,1.8 nM,1790 nM
CCN(CC)c1ncc(N(CC)C(=O)c2ccoc2)c(N[C@@H](Cc2ccc(OC(=O)N3CCCC3)cc2)C(=O)O)n1,62 nM,4.7 nM,297 nM
CCN(CC)c1ncc(N(CC)C(=O)c2nccs2)c(N[C@@H](Cc2ccc(OC(=O)N3CCCC3)cc2)C(=O)O)n1,12 nM,2.9 nM,2020 nM
CCN(CC)c1ncc(N(CC)C(=O)c2ccccn2)c(N[C@@H](Cc2ccc(OC(=O)N3CCCC3)cc2)C(=O)O)n1,4 nM,,165 nM
CCN(CC)c1ncc(N(CC)C(=O)N(C)C)c(N[C@@H](Cc2ccc(OC(=O)N3CCCC3)cc2)C(=O)O)n1,14 nM,5.7 nM,1590 nM
CCN(CC)C(=O)N(CC)c1cnc(N(CC)CC)nc1N[C@@H](Cc1ccc(OC(=O)N2CCCC2)cc1)C(=O)O,6 nM,,1050 nM
CCN(CC)c1ncc(N(CC)C(=O)N2CCCCC2)c(N[C@@H](Cc2ccc(OC(=O)N3CCCC3)cc2)C(=O)O)n1,12 nM,3.3 nM,1540 nM
CCN(CC)c1ncc(N(CC)C(=O)N2CCOCC2)c(N[C@@H](Cc2ccc(OC(=O)N3CCCC3)cc2)C(=O)O)n1,3 nM,1.4 nM,234 nM
CCN(CC)c1ncc(N(CC)C(=O)Nc2ccccc2)c(N[C@@H](Cc2ccc(OC(=O)N3CCCC3)cc2)C(=O)O)n1,67 nM,7.5 nM,3220 nM
CCN(CC)c1ncc(N(CC)C(=O)NCc2ccccc2)c(N[C@@H](Cc2ccc(OC(=O)N3CCCC3)cc2)C(=O)O)n1,174 nM,18.5 nM,7150 nM
CCN(CC)c1ncc(N(CC)C(=O)NCCc2ccccc2)c(N[C@@H](Cc2ccc(OC(=O)N3CCCC3)cc2)C(=O)O)n1,29 nM,12 nM,5830 nM
CCN(CC)c1ncc(N(CC)S(C)(=O)=O)c(N[C@@H](Cc2ccc(OC(=O)N3CCCC3)cc2)C(=O)O)n1,217 nM,15.5 nM,7930 nM
CCN(CC)c1ncc(N(CC)S(=O)(=O)N(C)C)c(N[C@@H](Cc2ccc(OC(=O)N3CCCC3)cc2)C(=O)O)n1,419 nM,50.7 nM,18600 nM
CCN(CC)c1ncc(N(CC)c2ccccc2F)c(N[C@@H](Cc2ccc(OC(=O)N3CCCC3)cc2)C(=O)O)n1,4550 nM,97.1 nM,
